{
  "sequences": {"note": "Amino acid sequences for entries named in this document (tags omitted).", "UniProt Q0SK70, entry or part of it": "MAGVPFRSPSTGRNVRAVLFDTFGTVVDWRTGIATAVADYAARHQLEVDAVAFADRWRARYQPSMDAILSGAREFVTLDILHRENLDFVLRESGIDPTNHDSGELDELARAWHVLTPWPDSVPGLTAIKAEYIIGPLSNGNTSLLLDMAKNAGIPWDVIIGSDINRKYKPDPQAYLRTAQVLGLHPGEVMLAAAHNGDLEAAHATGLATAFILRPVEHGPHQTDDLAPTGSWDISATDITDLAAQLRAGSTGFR", "UniProt A0A926DHK7, entry or part of it": "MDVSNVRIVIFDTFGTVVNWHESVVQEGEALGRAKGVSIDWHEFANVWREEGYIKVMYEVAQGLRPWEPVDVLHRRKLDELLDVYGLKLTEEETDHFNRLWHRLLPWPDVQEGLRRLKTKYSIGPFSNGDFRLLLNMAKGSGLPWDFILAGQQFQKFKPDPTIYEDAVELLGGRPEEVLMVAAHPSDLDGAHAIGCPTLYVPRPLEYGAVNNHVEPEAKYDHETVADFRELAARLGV"},
  "source": "paper PMC12184663",
  "about": "(Proceedings of the National Academy of Sciences of the …, 2025)",
  "key": {"[1]": {"target": "T1, P5 (HAD from R. jostii RHA1, Rha0230) (Rhodococcus jostii, UniProt Q0SK70)", "T1 construct": "gene RHA1_ro00230"}, "P3": {"system": "T2, P3", "T2 construct": "gene haloacid dehalogenase type II", "settings": "Tris-SO4 pH 8.5 (100 mM; 300 mM at 20-100 mM substrate), 37 °C, 0.5 mg/mL enzyme"}, "[2]": {"target": "T3, P6 (WP_178618037, Guopingia tenuis) (Guopingia tenuis, UniProt A0A926DHK7)", "T3 construct": "gene H8693_03100", "settings": "1 mM substrate, 100 mM Tris-SO4 pH 8.5, 37 °C"}},
  "data": [
    {"molecule": "O=C(O)C(F)F", "note": "[DFA, difluoroacetate]", "values": [
      {"measurement": "ion chromatography", "setting": "[1]", "result": "three enzymes (P2, P3, and P5) capable of defluorinating DFA"}
    ]},
    {"molecule": "O=C(O)CF", "note": "[FAc, fluoroacetate]", "values": [
      {"measurement": "Km", "setting": "P3", "result": "59.8 ± 7.7", "unit": "mM"},
      {"measurement": "ion chromatography of fluoride and glycolate", "setting": "[2]", "result": "The remaining four enzymes hydrolyzed fluoroacetate, producing fluoride ion and glycolate stoichiometrically"}
    ]}
  ]
}
